Columns and labels:
Experiment in all cases: quartz crystal microbalance
IgG3-DNP-E430G (human) = biological target: IgG3-DNP-E430G (human)
IgG1-DNP-E430G (human) = biological target: IgG1-DNP-E430G (human)
IgG2-DNP-RGY (human) = biological target: IgG2-DNP-RGY (human)
IgG1-DNP-RGY (human) = biological target: IgG1-DNP-RGY (human)
IgG4-DNP-RGY (human) = biological target: IgG4-DNP-RGY (human)
IgG3-DNP-RGY (human) = biological target: IgG3-DNP-RGY (human)

Amino acid sequences for entries named in this document (tags omitted). Residues count along the entry.
UniProt P02745, whole entry, looked up: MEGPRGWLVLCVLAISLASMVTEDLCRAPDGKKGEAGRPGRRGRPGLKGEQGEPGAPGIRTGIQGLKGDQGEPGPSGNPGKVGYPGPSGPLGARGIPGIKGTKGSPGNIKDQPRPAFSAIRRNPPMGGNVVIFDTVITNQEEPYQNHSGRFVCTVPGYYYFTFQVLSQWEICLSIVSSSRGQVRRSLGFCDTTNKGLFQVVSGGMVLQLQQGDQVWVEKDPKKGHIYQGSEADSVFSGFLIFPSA
UniProt P02745, 23-245: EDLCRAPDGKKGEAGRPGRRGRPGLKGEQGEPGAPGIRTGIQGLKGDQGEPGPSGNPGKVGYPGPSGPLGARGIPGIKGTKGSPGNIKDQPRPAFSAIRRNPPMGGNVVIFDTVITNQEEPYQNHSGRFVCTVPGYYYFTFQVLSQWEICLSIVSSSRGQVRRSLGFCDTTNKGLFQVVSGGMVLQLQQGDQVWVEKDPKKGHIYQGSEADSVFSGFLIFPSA
C1 (C1qr2s2), UniProt P02746, whole entry, looked up: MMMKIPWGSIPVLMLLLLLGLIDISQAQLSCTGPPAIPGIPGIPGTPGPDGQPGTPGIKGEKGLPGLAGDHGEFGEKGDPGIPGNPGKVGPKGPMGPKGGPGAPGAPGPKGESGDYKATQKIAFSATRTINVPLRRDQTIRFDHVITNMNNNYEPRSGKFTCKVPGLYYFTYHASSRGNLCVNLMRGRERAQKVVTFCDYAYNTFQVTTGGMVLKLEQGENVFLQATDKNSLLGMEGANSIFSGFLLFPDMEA
C1q, UniProt P02746, 28-253: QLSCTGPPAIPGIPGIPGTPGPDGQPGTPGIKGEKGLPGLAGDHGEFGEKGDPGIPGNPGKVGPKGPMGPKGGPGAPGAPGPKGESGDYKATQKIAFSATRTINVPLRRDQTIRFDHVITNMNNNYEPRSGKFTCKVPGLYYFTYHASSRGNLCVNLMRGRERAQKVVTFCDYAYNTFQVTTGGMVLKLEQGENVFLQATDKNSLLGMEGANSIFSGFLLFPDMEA
C1 (C1qr2s2), UniProt P02747, whole entry, looked up: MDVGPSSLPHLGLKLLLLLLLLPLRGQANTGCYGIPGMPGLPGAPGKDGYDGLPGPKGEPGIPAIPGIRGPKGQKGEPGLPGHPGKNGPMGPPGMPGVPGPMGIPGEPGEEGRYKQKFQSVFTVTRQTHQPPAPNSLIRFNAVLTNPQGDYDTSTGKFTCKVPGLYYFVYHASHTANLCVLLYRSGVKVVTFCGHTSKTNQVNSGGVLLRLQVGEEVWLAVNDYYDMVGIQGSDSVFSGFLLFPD
C1q, UniProt P02747, 29-245: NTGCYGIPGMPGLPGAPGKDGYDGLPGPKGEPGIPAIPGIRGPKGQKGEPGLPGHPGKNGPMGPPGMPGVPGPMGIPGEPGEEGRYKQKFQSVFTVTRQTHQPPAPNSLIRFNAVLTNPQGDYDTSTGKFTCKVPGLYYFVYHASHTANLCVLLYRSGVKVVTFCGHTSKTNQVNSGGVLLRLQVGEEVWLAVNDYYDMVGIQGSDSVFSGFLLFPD

Substance: C1 (C1qr2s2) (from UniProt P02745 23-245; P02746 28-253; P02747 29-245) (complex)
- fold C1 recruitment efficiency against IgG3-DNP (IgG3-DNP-E430G (human)): 2.5 times
- IgGs/C1 ratio (average IgGs needed to stably bind a single C1) (IgG1-DNP-E430G (human)): 8 IgGs/C1

Substance: C1q (from UniProt P02745 23-245; P02746 28-253; P02747 29-245) (complex)
- Kd (IgG2-DNP-RGY (human)): 20 µM
- Kd (IgG1-DNP-RGY (human)): 8 µM
- Kd (IgG4-DNP-RGY (human)): 11.3 µM
- Kd (IgG3-DNP-RGY (human)): 4.1 µM

Source: doi:10.1101/2024.03.26.586731
